In publication PMC11176561 (Computational and Structural Biotechnology Journal, 2024):

Tested on: ceftazidime-resistant E. coli E24
Assay: E. coli-induced mouse bacteremia
Details: ELISA, 8 h; TS-CATH 2.5, 5, 10 mg/kg or ceftazidime 5 mg/kg; compared with model

Compound: CC(C)(O/N=C(\C(=O)N[C@@H]1C(=O)N2C(C(=O)[O-])=C(C[n+]3ccccc3)CS[C@H]12)c1csc(N)n1)C(=O)O [Ceftazidime]
- E. coli-induced secretion levels of TNF-α, IL-1β, and IL-6 in the serum: little effect
